Screening results as filed in PubChem BioAssay.
Sampled rows, rich in hits. Any-hit rate of the full collection: about 16%.
miR-21 reporter: miR-21 reporter, rising signal | HeLa miR-21 FLuc reporter, luciferase, 48 h | Potency, µM (doses to about 38.3 µM) | 340,000 tested, under 10 active | AID 2288; active = well fitted rising curve with a large enough effect; inconclusive = small, poorly fitted or top-dose-only effect; inactive = no such curve, though single readings can be large or run the other way;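 note: miR-21 action dims this reporter so a rising signal means less miR-21 action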
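Luminescence from a firefly luciferase reporter carrying a miR-21 binding site downstream, stably expressed under a CMV promoter in HeLa cells that make miR-21 endogenously, reports miRNA modulation after 48 h compound exposure up to approximately 40uM final.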
TDP1 inh: TDP1 (human) enzyme inhibition | 0.28% of 350,000 active | Q9NUW8 | AID 485290 | recombinant TDP1, AlphaScreen DNA substrate cleavage | Potency, µM (highest dose often 130 µM), most hits filed as inhibitors; further: nearly all actives have a fitted effect of over 40% in size
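Compounds were preincubated with Tdp1 (1 nM final) for 15 min at room temperature before substrate (15 nM final) started a 5 min reaction; beads (10 ug/ml final) were then added for 10 min before AlphaScreen detection.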
TDP1 cell noCPT: qHTS for Inhibitors of human tyrosyl-DNA phosphodiesterase 1 (TDP1): qHTS in cells in absence of CPT; DT40 Tdp1-/- hTDP1 cells, no CPT, ATP luminescence, 48 h; Potency, µM (top dose mostly 46.2 µM), actives largely listed as inhibitors; 15% of 420,000 active; further: nearly all actives have a fitted effect of over 55% in size
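Seeded 400 DT40-hTDP1 cells/well (vehicle DMSO, no 20 nM CPT); pinned compounds; ≥48 hr at 37 °C; CellTiter-Glo luminescence as viability measure.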
uPA generation: blocks generation of uPA at the cell surface; cell surface uPA generation assay, qHTS; Potency, µM (top dose mostly 38.3 µM), most hits filed as inhibitors; 0.31% of 330,000 active; active means well fitted inhibition curve with a large enough effect; inconclusive means small, poorly fitted or top-dose-only effect; inactive means no such curve, though single readings can be large or run the other way; tested in mouse RAW 264.7 cells; further: nearly all actives have a fitted effect of over 55% in size
DT40 TDP1 CPT: growth inhibition of DT40 Tdp1-/-;hTDP1 cells with camptothecin (screen for TDP1 inhibitors) | chicken DT40 Tdp1-/-;hTDP1 cells + 20 nM CPT, ATP luminescence, 48 h | Potency, µM (titrated, usually from 46.2 µM), actives largely listed as inhibitors | 12% of 420,000 active | AID 686979; further: nearly all actives have a fitted effect of over 55% in size
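Chicken DT40 Tdp1-/- cells stably complemented with human TDP1 were seeded at 400 cells/well in medium containing 20 nM camptothecin, exposed to pin-transferred compounds, and grown at 37 °C for at least 48 hr. Viability was read as ATP luminescence.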
Large screens that a line does not name were inactive. Unless noted, the call rests on the fitted dose curve; in most records, active means well fitted curve in the direction sought with a large enough effect; inconclusive means small, poorly fitted or top-dose-only effect, or another doubt; inactive means no such curve, though single readings can be large; an effect the other way counts as inactive or inconclusive.

CC(C)CCNC(=O)CCCn1c(=O)c2cccn2c2ccccc21	TDP1 cell noCPT inconclusive, DT40 TDP1 CPT inconclusive (no result: uPA generation)
Nc1cccc2[nH]c(C(F)(F)F)nc12	TDP1 cell noCPT inconclusive (no result: TDP1 inh)
N#Cc1nc(Cc2cccc3ccccc23)oc1NCc1ccc(F)cc1	TDP1 cell noCPT 21µM, DT40 TDP1 CPT inconclusive
CCCCC(c1nnnn1CCOC)N1CCN(C(=O)c2ccco2)CC1 (centres undefined)	DT40 TDP1 CPT 18µM
CCC(c1nnnn1Cc1ccccc1)N1CCN(C(=O)c2ccco2)CC1 (centres undefined)	none
CC(C)C(c1nnnn1Cc1ccc(F)cc1)N1CCN(C(=O)c2ccco2)CC1 (centres undefined)	TDP1 cell noCPT 16µM, DT40 TDP1 CPT inconclusive
CCc1c(C)c2ccc(OCC(=O)NCC3CCC(C(=O)O)CC3)c(C)c2oc1=O (centres undefined)	none (no result: TDP1 inh)
CCN(Cc1ccccc1)S(=O)(=O)c1ccc(OC)cc1	TDP1 cell noCPT 16µM, DT40 TDP1 CPT inconclusive (no result: TDP1 inh)
CCN(Cc1ccccc1)S(=O)(=O)c1ccc2oc(C(=O)O)c(C)c2c1	none (no result: uPA generation)
CCN(Cc1ccccc1)S(=O)(=O)c1ccc(-c2coc(C)n2)cc1	miR-21 reporter inconclusive, TDP1 cell noCPT 23µM, DT40 TDP1 CPT 13µM (no result: uPA generation)
COc1ccc(S(=O)(=O)N(CC(=O)N2CCCC2)Cc2ccccc2)cc1	TDP1 cell noCPT inconclusive, DT40 TDP1 CPT inconclusive
Cc1nc(-c2ccc(S(=O)(=O)N(Cc3ccccc3)C(C)C)cc2)co1	TDP1 cell noCPT 15µM, DT40 TDP1 CPT inconclusive (no result: uPA generation)
Cc1ccc(C(=O)N2c3nc(-c4ccco4)nn3C3(CCCCC3)[C@@H]3CCCC[C@@H]32)cc1	TDP1 cell noCPT 15µM, DT40 TDP1 CPT 16µM (no result: uPA generation)
COc1cccc(C(=O)N2c3nc(-c4ccco4)nn3C3(CCCCC3)[C@@H]3CCCC[C@@H]32)c1	miR-21 reporter inconclusive, TDP1 cell noCPT 16µM, DT40 TDP1 CPT inconclusive (no result: uPA generation)
COc1ccc(F)cc1S(=O)(=O)NCC(c1ccco1)S(=O)(=O)c1ccc(F)cc1 (centres undefined)	TDP1 cell noCPT inconclusive, DT40 TDP1 CPT inconclusive (no result: uPA generation)
Cc1ccc(C)c(S(=O)(=O)NCC(c2ccco2)S(=O)(=O)c2ccc(F)cc2)c1 (centres undefined)	miR-21 reporter inconclusive, TDP1 cell noCPT 1.2µM, DT40 TDP1 CPT 1.3µM (no result: uPA generation)
COc1ccc(CCNC(=O)C(=O)NCC(c2cccs2)S(=O)(=O)c2ccc(C)cc2)cc1 (centres undefined)	TDP1 cell noCPT 9.2µM, DT40 TDP1 CPT inconclusive (no result: uPA generation)
O=C(NCCc1ccc(F)cc1)C(=O)NCC(c1cccs1)S(=O)(=O)c1ccc(F)cc1 (centres undefined)	TDP1 cell noCPT inconclusive, DT40 TDP1 CPT inconclusive (no result: uPA generation)
Cc1ccc(S(=O)(=O)C(CNC(=O)C(=O)NCCc2ccc(F)cc2)c2cccs2)cc1 (centres undefined)	TDP1 cell noCPT 16µM, DT40 TDP1 CPT inconclusive (no result: uPA generation)
COc1ccccc1CCNC(=O)C(=O)NCC(c1ccco1)S(=O)(=O)c1ccc(F)cc1 (centres undefined)	TDP1 cell noCPT inconclusive, DT40 TDP1 CPT 16µM (no result: uPA generation)
COc1ccccc1CNC(=O)C(=O)NCC(c1ccco1)S(=O)(=O)c1ccc(C)cc1 (centres undefined)	TDP1 cell noCPT inconclusive, DT40 TDP1 CPT inconclusive (no result: uPA generation)
O=C(NCC1CCCO1)c1cn(Cc2ccccc2)nc1-c1ccccc1 (centres undefined)	none (no result: miR-21 reporter)
O=C(NCCC1=CCCCC1)c1cc(S(=O)(=O)N2CCOCC2)c(Cl)cc1Cl	TDP1 cell noCPT inconclusive, DT40 TDP1 CPT inconclusive (no result: miR-21 reporter)
COC(=O)c1sccc1-c1ccc(C(=O)Nc2ccccc2)o1	TDP1 cell noCPT inconclusive, DT40 TDP1 CPT inconclusive
CCCOc1ccc(/C=C/C(=O)O)cc1OC	none
O=C(NCCc1ccc(F)cc1)C(=O)NCC(c1cccs1)S(=O)(=O)c1ccccc1 (centres undefined)	TDP1 cell noCPT inconclusive, DT40 TDP1 CPT inconclusive (no result: uPA generation)
Cc1ccc(S(=O)(=O)C(CNC(=O)c2ccccc2F)c2cccs2)cc1 (centres undefined)	TDP1 cell noCPT 15µM, DT40 TDP1 CPT inconclusive (no result: uPA generation)
Cc1ccc(S(=O)(=O)C(CNC(=O)C(=O)NCCc2ccccc2)c2cccs2)cc1 (centres undefined)	TDP1 cell noCPT 15µM, DT40 TDP1 CPT 16µM (no result: uPA generation)
